Experimental data: patent publication US20240010729A1, “COMBINATION THERAPY OF A PD-1 ANTAGONIST AND LAG3 ANTAGONIST AND LENVATINIB OR A PHARMACEUTICALLY ACCEPTABLE SALT THEREOF FOR TREATING PATIENTS WITH CANCER” (MERCK SHARP & DOHME LLC, priority 2020, published 2024)

System: KPC-2838c3 pancreatic model
Assay: KPC-2838c3 mouse syngeneic tumor model (tumor growth)
Format: in vivo, mouse (C57BL/6J)
Conditions: FIG. 2

**Q.** `COc1cc2nccc(Oc3ccc(NC(=O)NC4CC4)c(Cl)c3)c2cc1C(N)=O` [Lenvatinib, 4-[3-chloro-4-(cyclopropylaminocarbonyl)aminophenoxy]-7-methoxy-6-quinolinecarboxamide] was tested. Which “anti-tumor efficacy (in words)” value did it give?
**A.** The value was “notable TGI”.
